Experimental data from PubChem BioAssay AID720509 (The Scripps Research Institute Molecular Screening Center, 2013).
The list shows a part of the results, in another mix than the full data. Activity calls are given as the source filed them.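 Rule for the calls: active = inhibition above a per-campaign cutoff: mean of compounds within control limits plus 3 SD (cut at about 15% in these data); inactive = the rest.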

Amino acid sequences for entries named in this document (tags omitted).
UniProt P02675, whole entry, looked up: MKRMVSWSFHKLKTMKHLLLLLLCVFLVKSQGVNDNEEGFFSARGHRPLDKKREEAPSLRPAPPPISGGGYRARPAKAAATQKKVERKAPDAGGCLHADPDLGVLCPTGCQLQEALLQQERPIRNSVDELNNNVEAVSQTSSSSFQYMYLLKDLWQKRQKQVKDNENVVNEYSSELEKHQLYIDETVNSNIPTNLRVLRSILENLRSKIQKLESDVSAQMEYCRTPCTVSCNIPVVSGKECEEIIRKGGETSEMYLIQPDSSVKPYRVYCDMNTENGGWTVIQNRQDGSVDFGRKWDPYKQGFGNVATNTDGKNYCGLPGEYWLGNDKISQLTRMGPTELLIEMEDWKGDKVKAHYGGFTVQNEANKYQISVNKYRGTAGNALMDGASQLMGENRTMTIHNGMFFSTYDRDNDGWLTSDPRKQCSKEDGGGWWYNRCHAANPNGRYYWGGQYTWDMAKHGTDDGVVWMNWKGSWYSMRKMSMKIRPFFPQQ

Target: Fibrinogen beta chain (Homo sapiens) (UniProt P02675)
Test: inhibitors of Tn6 peptide binding to fibrin DD(E), primary screen, biochemical, fluorescence polarization, human fibrin, Tn6 probe (AID 720509);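 note: 0% = median of all compound wells on the plate and 100% = blocking peptide control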
Settings: Fibrin DD(E) TRITC-Tn6 fluorescence polarization displacement; at 8.3 µM; stronger effect = higher value

| Structure (SMILES) | inhibition |
| --- | --- |
| CCOc1ncccc1C(=O)NCC1(N2CCOCC2)CCCCC1 | inactive: 2.3% |
| CN1CCC(Nc2ccc(F)c(Cl)c2)CC1 | inactive: -7.52% |
| CC(C)(C)OC(=O)N1CCC(Nc2ccccc2)CC1 | inactive: -0.95% |
| O=C(O)C1(Nc2ccccc2)CCN(Cc2ccccc2)CC1 | inactive: 3.61% |
| NN(c1ccccc1)C1CCN(CCc2ccccc2)CC1 | inactive: 2% |
| CCCOc1ccc(C(=O)NCC2(N(C)C)CCCCC2)cc1 | inactive: 1.29% |
| O=c1[nH]c2ccccc2n1C1CCN(C(c2cc3ccccc3o2)c2nnnn2C2CCCC2)CC1 (stereo unspecified) | inactive: 6.23% |
| COc1cccc(C(c2nnnn2C2CCCC2)N2CCC(n3c(=O)[nH]c4ccccc43)CC2)c1OC (stereo unspecified) | inactive: -6.18% |
| COc1cc(OC)cc(C(=O)NCC2(N3CCOCC3)CCCCC2)c1 | inactive: 8.13% |
| COc1cccc(C(=O)N(c2cc(C)cc(C)c2)C2CCN(C(=O)OC(C)(C)C)CC2)c1 | inactive: -2.01% |
| CCC(CO)(C(=O)OC1CN2CCC1CC2)c1ccccc1 (stereo unspecified) | inactive: -0.6% |
| CN1CCC(Nc2ccc(Cl)cc2)CC1 | inactive: -7.09% |
| CC(=O)N(c1ccccc1)C1CCNCC1 | inactive: 0.19% |
| COc1cccc(C(c2nnnn2C2CCCCC2)N2CCC(n3c(=O)[nH]c4ccccc43)CC2)c1OC (stereo unspecified) | inactive: 4.39% |
| CCC(c1nnnn1C1CCCCC1)N1CCC(n2c(=O)[nH]c3ccccc32)CC1 (stereo unspecified) | inactive: 2.96% |
| O=c1[nH]c2ccccc2n1C1CCN(C(c2ccnc3ccccc23)c2nnnn2C2CCCCC2)CC1 (stereo unspecified) | inactive: 0.17% |
| COc1cc(OC)cc(C(=O)NCC2(N3CCCCC3)CCCCC2)c1 | inactive: -9.36% |
| Cc1ccc(C(=O)NCC2(N3CCCCC3)CCCCC2)o1 | inactive: 1.82% |
| Fc1ccccc1NC1CCN(Cc2ccccc2)CC1 | inactive: 3.13% |
| Cc1ccc(NC2(C#N)CCN(Cc3ccccc3)CC2)cc1 | inactive: -6.88% |
| Cc1ccccc1NC1(C#N)CCN(Cc2ccccc2)CC1 | inactive: -0.9% |

| Structure (SMILES) | inhibition |
| --- | --- |
| CC(C)(C)n1nnnc1C(c1ccnc2ccccc12)N1CCC(n2c(=O)[nH]c3ccccc32)CC1 (stereo unspecified) | inactive: -7.97% |
| CCN1CCC(Nc2cccc(F)c2)CC1 | inactive: -2.8% |
| COc1ccc(C(c2nnnn2C2CCCCC2)N2CCC(n3c(=O)[nH]c4ccccc43)CC2)cc1 (stereo unspecified) | inactive: 11.5% |
| O=C(NCC1(N2CCCCC2)CCCCC1)c1ccco1 | inactive: -5.63% |
| Cn1c(=O)[nH]cc(N(CCCl)CCCl)c1=O | inactive: 2.9% |
| CN(C)c1ccc(C(=O)NCC2(N3CCCCC3)CCCCC2)cc1 | inactive: 3.13% |
| N#Cc1ccc(C(=O)NCC2(N3CCCCC3)CCCCC2)cc1 | inactive: -0.91% |
| CC(C)(C)OC(=O)N1CCC(N(C(=O)c2ccccc2)c2ccc(Cl)cc2)CC1 | inactive: -10.6% |
| CN(C)C1(CNC(=O)c2cccc(C#N)c2)CCCCC1 | inactive: 5.22% |
| c1ccc(CN2CCC(Nc3ccccc3)CC2)cc1 | inactive: -6.42% |
| C/C(N)=N\P(=O)(Oc1ccccc1)Oc1ccccc1 | inactive: 0.77% |
| Cc1cc(N(CCCl)CCCl)ccc1C=O | inactive: 2.19% |
| CCCN1CCC(Nc2cc(OC)cc(OC)c2)CC1 | inactive: -6.97% |
| O=c1[nH]c2ccccc2n1C1CCN(C(c2ccccc2)c2nnnn2C2CCCC2)CC1 (stereo unspecified) | inactive: 2.72% |
| CC(C)(C)n1nnnc1C(c1cccc2ccccc12)N1CCC(n2c(=O)[nH]c3ccccc32)CC1 (stereo unspecified) | inactive: -9.62% |
| CCCCn1nnnc1C(c1ccccc1)N1CCC(n2c(=O)[nH]c3ccccc32)CC1 (stereo unspecified) | inactive: -1.06% |
| COc1cc(C(=O)NCC2(N3CCOCC3)CCCCC2)cc(OC)c1C | inactive: -4.49% |
| O=C(NCC1(N2CCOCC2)CCCCC1)c1cc(Br)ccc1Cl | inactive: 7.66% |
| O=c1[nH]c2ccccc2n1C1CCN(C(c2cccs2)c2nnnn2C2CCCCC2)CC1 (stereo unspecified) | inactive: -9.08% |
| NC(=O)C1(Nc2ccccc2)CCN(Cc2ccccc2)CC1 | inactive: 2.96% |
| COc1ccc(C(=O)NCC2(N3CCOCC3)CCCCC2)cc1OC | inactive: 5.32% |

| Structure (SMILES) | inhibition |
| --- | --- |
| O=c1[nH]c2ccccc2n1C1CCN(C(c2ccnc3ccccc23)c2nnnn2C2CCCC2)CC1 (stereo unspecified) | inactive: -9.21% |
| COc1cccc(C(c2nnnn2C(C)(C)C)N2CCC(n3c(=O)[nH]c4ccccc43)CC2)c1OC (stereo unspecified) | inactive: -6.25% |
| CCOC(=O)N1CCC(Nc2ccc(C)cc2)CC1 | inactive: -4% |
| N/C(=N\O)c1c(N)no[n+]1[O-] | inactive: 13.2% |
| O=C(OC1CN2CCC1CC2)C1c2ccccc2C=Cc2ccccc21 (stereo unspecified) | inactive: -2.41% |
| O=c1[nH]c2ccccc2n1C1CCN(C(c2cccs2)c2nnnn2C2CCCC2)CC1 (stereo unspecified) | inactive: -0.89% |
| CCCCn1nnnc1C(c1cccc(OC)c1OC)N1CCC(n2c(=O)[nH]c3ccccc32)CC1 (stereo unspecified) | inactive: -3.89% |
| CC(C)c1ccc(NC2CCN(C(=O)OC(C)(C)C)CC2)cc1 | inactive: 6.94% |
| COC(=O)C1(Nc2ccccc2)CCN(Cc2ccccc2)CC1 | inactive: 0.49% |
| COc1ccc(CN(CCCl)CCCl)cc1Cl | inactive: -0.22% |
| CN(C)c1cccc(C(=O)NCC2(N3CCCCC3)CCCCC2)c1 | inactive: 1.11% |
| COc1cc(OC)c(C(=O)NCC2(N(C)C)CCCCC2)cc1OC | inactive: 4.79% |
| CCC(c1nnnn1C(C)(C)C)N1CCC(n2c(=O)[nH]c3ccccc32)CC1 (stereo unspecified) | inactive: 3.08% |
| O=C(NCC1(N2CCOCC2)CCCCC1)c1cc(F)c(F)cc1Cl | inactive: 1.82% |
| CCCCn1nnnc1C(c1ccnc2ccccc12)N1CCC(n2c(=O)[nH]c3ccccc32)CC1 (stereo unspecified) | inactive: -6.34% |
| O=C(NCC1(N2CCCCC2)CCCCC1)c1cncc(Br)c1 | inactive: 9.4% |
| CN1CCC(Nc2cccc(F)c2)CC1 | inactive: -2.67% |
| COc1ccc(C(c2nnnn2C2CCCC2)N2CCC(n3c(=O)[nH]c4ccccc43)CC2)cc1 (stereo unspecified) | inactive: -3.42% |
| Cc1ccc(C(=O)NCC2(N(C)C)CCCCC2)o1 | inactive: -3.03% |
